Publication PMC9023740, “Mucin-Type O-Glycosylation Proximal to β-Secretase Cleavage Site Affects APP Processing and Aggregation Fate” (Frontiers in Chemistry, 2022)
“And” between values parts separate entries of the source, which are not always exact repeats. Identical values can stand only once.

Sequences of proteins named here, by UniProt entry; tags and fusion partners are left off. Residues count along the entry.
UniProt P05067, 672-711 limits assumed: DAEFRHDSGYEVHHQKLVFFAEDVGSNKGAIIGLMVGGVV
UniProt P56817, 46-457 limits assumed: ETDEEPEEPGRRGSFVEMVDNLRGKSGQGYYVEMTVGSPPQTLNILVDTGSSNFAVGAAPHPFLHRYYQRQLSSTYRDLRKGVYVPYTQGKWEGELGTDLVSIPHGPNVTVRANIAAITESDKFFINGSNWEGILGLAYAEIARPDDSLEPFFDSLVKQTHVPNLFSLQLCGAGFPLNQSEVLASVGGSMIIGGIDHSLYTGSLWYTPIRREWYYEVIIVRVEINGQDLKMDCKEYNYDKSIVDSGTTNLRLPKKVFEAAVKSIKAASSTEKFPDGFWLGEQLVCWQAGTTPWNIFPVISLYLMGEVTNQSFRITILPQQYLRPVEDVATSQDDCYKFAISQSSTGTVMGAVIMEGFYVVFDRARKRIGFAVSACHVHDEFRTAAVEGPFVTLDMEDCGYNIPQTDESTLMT

Columns and labels:
Aβ40 [1] = target: T1, Aβ40 (Homo sapiens, UniProt P05067); experiment: ThT aggregation kinetics assay of Aβ40 with APP (glyco)peptides; settings: for Δt50 (APP (glyco)peptide t50 - Aβ40 t50): Aβ40 10 µM, 50 mM phosphate buffer pH 7.4, 20 µM ThT, 37°C, means of triplicate kinetics
T1 construct: Aβ40 peptide was synthesized on a PS3 solid phase peptide synthesizer; made in house; host or cells: chemical solid-phase peptide synthesis (Fmoc), no expression host
Experimental: Aβ40 peptide was synthesized on a PS3 solid phase peptide synthesizer (Protein Technologies Inc., Woburn, MA) using the standard Fmoc strategy. The resulting crude peptide was purified by reversed-phase high-performance liquid chromatography (RP-HPLC) using a C18 column and characterized by matrix-assisted laser desorption ionization (MALDI) mass spectrometry. The peptide was monomerized as described previously before use ([Liu et al., 2018]). Lyophilized peptide powder was dissolved in aqueous NaOH solution (2 mM), and the pH was adjusted to ∼11 by using 100 mM NaOH solution. The solution was sonicated for 1 h in an ice−water bath and then filtered through a 0.22 μm filter (Millipore) and kept on ice before use. The concentration of the peptide solution was determined by using the tyrosine UV absorbance at 280 nm (ε = 1280 M^−1 cm^−1).
The aggregation kinetics of Aβ40 in the absence and presence of APP (glyco)peptides was performed using ThT binding assay. The monomerized Aβ40 peptide solution was diluted to a final concentration of 10 µM in 50 mM phosphate buffer (pH 7.4) and 20 µM ThT dye. For the co-incubation assays with APP (glyco)peptides, APP stock solutions of 120 µM were added to the prepared Aβ40 for final (glyco) peptide concentrations of 10 µM or 50 µM and Aβ40 concentration of 10 µM in 50 mM phosphate buffer (pH 7.4) with 20 µM ThT dye. 100 µL of each prepared solution was run in triplicate of a 96-well microplate (Costar black, clear bottom). The plate was sealed with a microplate cover and loaded into a Gemini SpectraMax EM fluorescence plate reader (Molecular Devices, Sunnyvale, CA) and incubated at 37°C. The ThT fluorescence was measured from the bottom of the plate at 10 min intervals, with 5 s of shaking, and with an excitation and emission wavelengths of 440 and 480 nm, respectively. Error bars of triplicate samples are shown for the particular data points.
We adopted the widely used thioflavin T (ThT) assay ([Xue et al., 2017]) to investigate how O-glycosylation impacts the kinetics of fiber formation of Aβ40, a model peptide for studying the dynamics of protein aggregation. […] At the conditions used in this study, it has been shown that Aβ amyloidogenesis proceeds by a nucleation-dependent polymerization mechanism that involves key soluble oligomeric intermediates ([Du et al., 2011]; [Elbassal et al., 2017]). The half time (t 50) of the growth phase of the Aβ40 amyloidogenesis was approximately 8 h (Figure 2, Supplementary Material S33–S40), where t 50 is defined as the time at which the fluorescence intensity reaches the midpoint between the pre- and post-aggregation baselines.
4. Aggregation kinetic ThT fluorescence curves of APP (glyco)peptides 3-16 coincubated with
For the aggregation kinetic assay, APP (glyco)peptide stock solutions were added to the prepared
Aβ40, phosphate buffer and ThT solution for final APP (glyco)peptide concentrations of 10 µM and
50 µM. 100 µL of prepared solution was distributed into each well and carried out in triplicate at 37
°C. ThT fluorescence was measured in 10 minute intervals.
Figure S1b. APP665-680-S*, 4 coincubated with Aβ40
(also on this page, place not known: 15 Normalized Fluorescence Intensity (h) 20 Normalized Fluorescence Intensity (h))

Aβ40 [2] = target: T1, Aβ40; experiment: AFM analysis of Aβ40 fibril morphology with APP (glyco)peptides; settings: 24 h incubation with Aβ40, tapping mode
Experimental: AFM was employed to monitor the morphological changes of Aβ40 incubated in the absence and presence of tyrosine glycosylated (14 and 16) and nonglycosylated APP analogues (13 and 15). Aliquots (15 µL) of Aβ40 solutions were collected directly from the aggregation kinetics assay and spotted onto the surface of the freshly cleaved mica surface (5 mm × 5 mm) on solid support at room temperature. Before the measurement, the samples were covered and dried in a vacuum desiccator overnight. The AFM images were acquired in tapping mode with an area of 4 μm^2, using AFM workshop TT-2 (Hilton Head Island, SC) with MikroMash NSC 15/Al BS silicon cantilevers (MikroMash, Watsonville, CA). The AFM images were further visualized and analyzed using the Gwyddion software.

[3] = analytical RP-HPLC; footnote c: reported earlier; ref Singh et al., 2021; cited from earlier work
From the text: TABLE 1 Characterization of APP (glyco)peptides 3–16 by analytical RP-HPLC and MALDI-MS ^a . | column: RP-HPLC / t R (min)

[4] = target: T2, Recombinant human BACE-1 (rhBACE-1) (Homo sapiens, UniProt P56817); settings: treatment with BACE-1 enzyme; footnote b: reported earlier; ref Singh et al., 2021; cited from earlier work
T2 construct: purchased R&D Systems #ES004 and #931-AS, respectively (so in the source)
From the text: TABLE 3 Proteolytic cleavage of APP (glyco)peptides 3–12 upon treatment with BACE-1 enzyme (KM∼D/NL∼D cleavage site) ^a . | column: BACE-1 activity / Recovered (%); BACE-1 activity / Cleaved (%) || Other key aspects affecting BACE-1 cleavage rates in the presence of the Swedish mutation were the length of the C-terminal Aβ fragment and the glycan position relative to the cleavage site. For example, 16 contains Aβ-(1–23) C-terminal fragment and is cleaved to a much lesser extent (42.4%) by BACE-1 than 11 that contains Aβ-(1–9) C-terminal fragment (98.1%). Moreover, the relative position of the GalNAc moiety on Thr^663 and Tyr^681 in 11 and 16, respectively, can also influence enzymatic activity. Even though 16 is cleaved to a lesser extent than 11 by BACE-1, the ∼3-fold increase in cleave ...

IKTEEISEVKM∼DAEFRHDSGYEVHHQK∼LVFFAED [compound 13, native nonglycosylated APP 661-694 peptide containing Aβ-(1–23), reported in Singh et al., 2021]
Δt50 (APP (glyco)peptide t50 - Aβ40 t50) (Aβ40 [1]; peptide 25 µM): 7.1 h
ThT signal at higher concentration (Aβ40 [1]; peptide 50 µM with Aβ40 10 µM): complete saturation of the ThT signal
AFM morphology of Aβ40 fibrils (Aβ40 [2]; peptide 25 μM): lower density of Aβ40 fibrils
RP-HPLC t R [3]: 17.6 min
BACE-1 activity, Cleaved (%) [4]: 0.0 ^b %
BACE-1 activity, Recovered (%) [4]: 100 ^b %

IKTEEISEVNL∼DAEFRHDSGYEVHHQK∼LVFFAED [compound 15, Swedish-mutated nonglycosylated APP 661-694 peptide, reported in Singh et al., 2021]
Δt50 (APP (glyco)peptide t50 - Aβ40 t50) (Aβ40 [1]; (glyco)peptide 50 µM): 5.2 h
AFM morphology of Aβ40 fibrils (Aβ40 [2]; (glyco)peptide 50 μM): fibrilar morphology similar to that of Aβ40 alone
RP-HPLC t R [3]: 18.2 min
BACE-1 activity, Cleaved (%) [4]: 13.1 ^b %
BACE-1 activity, Recovered (%) [4]: 86.8 ^b %

IKTEEISEVNL∼DAEFRHDSGY*EVHHQK∼LVFFAED [compound 16, Swedish-mutated APP 661-694 glycopeptide with O-GalNAc on Tyr^681, reported in Singh et al., 2021]
Δt50 (APP (glyco)peptide t50 - Aβ40 t50) (Aβ40 [1]; (glyco)peptide 50 µM): 15.2 h
AFM morphology of Aβ40 fibrils (Aβ40 [2]; (glyco)peptide 50 μM): thinly dispersed and less dense Aβ40 fibril
RP-HPLC t R [3]: 17.8 min
BACE-1 activity, Cleaved (%) [4]: 42.4% and 42.4 ^b %
BACE-1 activity, Recovered (%) [4]: 57.4 ^b %

IKTEEISEVKM∼DAEFRHDSGY*EVHHQK∼VFFAED [compound 14, native APP 661-694 glycopeptide with O-GalNAc on Tyr^681, reported in Singh et al., 2021]
Δt50 (APP (glyco)peptide t50 - Aβ40 t50) (Aβ40 [1]; (glyco)peptide 50 µM): 12.1 h
AFM morphology of Aβ40 fibrils (Aβ40 [2]; (glyco)peptide 50 μM): less fibrils formed, and the ones formed were shorter in size
RP-HPLC t R [3]: 17.1 min
BACE-1 activity, Cleaved (%) [4]: 0.0 ^b %
BACE-1 activity, Recovered (%) [4]: 100 ^b %
